# Earlier results in patent publication US5246935A, “Piperazinyl derivatives and methods of treating central nervous system ailments relating to the 5-HT2 receptor system” (Novo Nordisk A/S, priority 1990, dated 1993).
# Test system: 5-HT2 receptor
# Details: cited from earlier work
smiles,measurement,value
Cc1nc2n(c(=O)c1CCN1CCC(c3noc4cc(F)ccc34)CC1)CCCC2 [Risperidone],affinity for / antagonism of 5-HT2 receptor (in words),potent antagonist
